{"source": "patent US5935805A", "about": "“Measurement of bilirubin albumin binding” (Research Corporation Technologies, Inc., priority 1997, dated 1999)", "details": "freeze dried HRP reconstituted with water to 100 μg/mL", "data": [{"substance": "horseradish peroxidase", "values": [{"measurement": "Time Kp remains unchanged after reconstitution", "value": "up to four"}]}]}
